{
  "source": "ChEMBL document CHEMBL1649375",
  "about": "“Design, synthesis and pharmacobiological evaluation of novel acrylic acid derivatives acting as lipoxygenase and cyclooxygenase-1 inhibitors with antioxidant and anti-inflammatory activities” (Eur J Med Chem, 2011)",
  "test": "DPPH radical scavenging activity assessed as reducing ability at 0.05 mM after 60 mins",
  "assay_type": "functional",
  "parameters": "scale not given: the % may be the effect or the level left",
  "in_short": "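DPPH in absolute ethanol mixed with equal volume of compound in DMSO (10 mM stock; final 0.05, 0.1, 0.2 mM); absorbance at 517 nm after 20 and 60 min at room temperature; % reducing ability. At least triplicate.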",
  "data": [
    {"smiles": "CC(Cc1ccc(O)c(O)c1)C(C)Cc1ccc(O)c(O)c1", "note": "(stereo unspecified) [NORDIHYDROGUAIARETIC ACID]", "values": [
      {"measurement": "Activity", "result": 83.1, "unit": "%"}
    ]}
  ]
}
